N, ΔH and ΔS data for one substance are collected here from PMC3570589 (Molecular cell, 2012).

This experiment deals with T1, PHF1 Tudor, wt (Homo sapiens, UniProt O43189).
T1 sequence (O43189 7-83): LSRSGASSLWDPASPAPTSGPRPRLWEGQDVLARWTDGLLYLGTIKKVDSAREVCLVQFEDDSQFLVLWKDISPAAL
The experiment in a line: ITC binding of PHF1 Tudor, wt, to histone peptides. To be noted: recombinant PHF1 Tudor wt, curve fit.

For “H3(1–15)K9me3: histone H3 peptide, residues 1–15, trimethylated at lysine 9”, the N was 0.70 ± 0.23, the ΔH is -0.817 ± 0.343 kcal/mol and the ΔS came to 17.3 cal/mol/deg.
